Data from patent publication US20020012620A1, “BACTERIAL LEACHING OF COPPER AND ZINC WITHOUT IRON LEACHING” (priority 1998, published 2002).

System: T. ferrooxidans
Assay type: cell-based, Thiobacillus ferrooxidans
Protocol: Bacterial leaching was performed in shake flask experiments with 250 ml Erlenmeyer™ flasks containing 95 ml of HP medium with and without inhibitors unless otherwise specified, 4 ml of inoculum (Fe^2+-grown T. ferrooxidans, S^0-grown T. thiooxidans or both) and 5 g of floatation tailings supplied by Cominco Research were used, as described below. The flasks were grown at 26° C. on a rotary shaker at 150 rpm for 14 days. At various time intervals, 5 ml samples were taken to determine the concentrations of dissolved zinc and iron in the leachate as well as the percentage of zinc and iron remaining in the precipitate (after filtration of the leachate).

For potassium chloride, the “effect on Zn selectivity” value was “little effect”.
